Calls of active or inactive are those of the source. The rule behind the calls is not given here.
How the values were obtained:
[1] = molecular target: Cyclin-dependent kinase 19 (Homo sapiens) (UniProt Q9BWU1); test: Inhibition of CDK19(CDK11) (unknown origin) assessed as residual ligand binding level at 0.5 uM by kinome scan assay relative to control
[2] = molecular target: Cyclin-dependent kinase 8 (Homo sapiens) (UniProt P49336); test: Inhibition of CDK8 (unknown origin) assessed as residual ligand binding level at 0.5 uM by kinome scan assay relative to control

Amino acid sequences for entries named in this document (tags omitted). A change or cut given only in a name is not applied to a line headed by its entry.
UniProt Q9BWU1: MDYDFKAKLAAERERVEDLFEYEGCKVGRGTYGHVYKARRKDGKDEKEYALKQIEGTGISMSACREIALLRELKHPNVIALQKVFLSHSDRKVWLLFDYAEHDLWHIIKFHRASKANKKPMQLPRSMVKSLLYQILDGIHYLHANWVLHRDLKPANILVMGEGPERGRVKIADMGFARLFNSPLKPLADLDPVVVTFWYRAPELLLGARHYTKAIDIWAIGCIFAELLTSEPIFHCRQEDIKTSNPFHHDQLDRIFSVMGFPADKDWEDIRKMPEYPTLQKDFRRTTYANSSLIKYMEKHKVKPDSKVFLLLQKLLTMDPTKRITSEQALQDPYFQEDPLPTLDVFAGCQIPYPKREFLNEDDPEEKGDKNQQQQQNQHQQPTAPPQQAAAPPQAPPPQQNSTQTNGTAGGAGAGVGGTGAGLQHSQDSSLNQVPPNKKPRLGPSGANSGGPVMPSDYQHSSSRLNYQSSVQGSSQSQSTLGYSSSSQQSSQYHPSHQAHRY
UniProt P49336: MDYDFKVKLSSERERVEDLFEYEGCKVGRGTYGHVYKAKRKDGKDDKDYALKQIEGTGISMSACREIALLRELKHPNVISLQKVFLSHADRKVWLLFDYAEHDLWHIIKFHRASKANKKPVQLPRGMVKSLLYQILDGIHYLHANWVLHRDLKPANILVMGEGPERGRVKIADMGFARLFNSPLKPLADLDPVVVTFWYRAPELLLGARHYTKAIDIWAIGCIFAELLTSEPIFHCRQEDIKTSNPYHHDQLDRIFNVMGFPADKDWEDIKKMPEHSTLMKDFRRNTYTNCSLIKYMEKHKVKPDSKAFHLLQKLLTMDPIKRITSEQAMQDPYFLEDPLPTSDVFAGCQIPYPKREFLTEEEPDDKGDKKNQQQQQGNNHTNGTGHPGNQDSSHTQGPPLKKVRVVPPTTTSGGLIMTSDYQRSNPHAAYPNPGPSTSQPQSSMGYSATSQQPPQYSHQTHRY

In the case of `CN(C)C(=O)Cc1ccc(N2CCCN(c3ccnc4sc(C(N)=O)c(N)c34)CC2)cc1`, the inhibition [1] is reported as “Active” and the inhibition [2] is reported as “Active”.

— ChEMBL document CHEMBL4742393, “Compounds for treatment of hypoproliferative disorders” (2019)
